# According to US7521438B1, “Combination of loteprednol and β2-adrenoceptor agonists” (MEDA Pharma GmbH & Co. KG, priority 1999, dated 2009):
# Tested on: eosinophilic granulocytes in the lung
# Test: Late-phase eosinophilia in actively sensitized guinea pigs, pulmonary lavage 24 h after allergen provocation
# Assay type: in vivo
# Details: guinea pig
smiles,measurement,setting,value
COc1ccc(CC(C)NCC(O)c2ccc(O)c(NC=O)c2)cc1 (stereo not shown),Inhibition of eosinophilia,0.0001 mg/kg intrapulmonarily,4.1%
same,Inhibition of eosinophilia,"0.0001 mg/kg intrapulmonarily, listed as formoterol",no inhibition or a marginal inhibition
same,Inhibition of eosinophilia,0.001 mg/kg intrapulmonarily,20.4%
same,Inhibition of eosinophilia,"0.001 mg/kg intrapulmonarily, listed as formoterol",no inhibition or a marginal inhibition
